Data from publication PMC7093532, “Iron bioavailability from bouillon fortified with a novel ferric phytate compound: a stable iron isotope study in healthy women (part II)” (Scientific Reports, 2020).

Experiment: Stable iron isotope absorption study in healthy adult women (erythrocyte incorporation of oral isotopic labels)
Conditions: n = 22 women, 4.2 mg labeled iron
From the text: The human study was a controlled, single blind (to the subjects), single center trial. Healthy adult women (n = 23) consumed 6 different types of investigational products in random order with a cross-over design: bouillon with and without corn porridge fortified either with [^58Fe]-PA-HCP, [^54Fe]-SO4, or [^57Fe]-PP, resulting in 6 different test meal sequences. The sequences built up a Partial Williams Latin square, balanced for first order carry over. The experimental phase lasted for a period of 33 days.
The human study was conducted between December 2016 and February 2017 at the Laboratory of Human Nutrition of the ETH Zurich. […] The study procedure was explained in detail and written informed consent was obtained. An interview was conducted, weight and height were measured and a venous blood sample was drawn to assess whether participants fulfilled inclusion and exclusion criteria (Hb, Ht, number of erythrocytes, PF). […] Quantitative consumption of the investigational product was ensured by washing the glass test meal container 2 times with 10 mL of ultrapure water. […]
Venous blood samples were collected after an overnight fast on day 1 (baseline), day 17 and day 33 (endpoint) to determine iron status and iron absorption from the test meals. Iron absorption was determined by quantifying the incorporation of oral stable isotopic labels into erythrocytes. […]

O=P([O-])([O-])OP(=O)([O-])[O-].O=P([O-])([O-])OP(=O)([O-])[O-].O=P([O-])([O-])OP(=O)([O-])[O-].[Fe+3].[Fe+3].[Fe+3].[Fe+3] [FePP, Ferric pyrophosphate]
Fractional iron absorption (FIA), geo-mean (bouillon + inhibitory meal rich in phytate): 0.3%
Fractional iron absorption (FIA), geo-mean (fortified reconstituted bouillon): 1.7%
